Assay results published in patent US20200407467.

Experiments:
[1] = tested on: CCNI2 peptide 46-135 (human library)
[2] = tested on: TNNT2 peptide 46-135 (human library, SEQ ID NO: 26)
[3] = tested on: NSMCE3 peptide 1-90 (human library)
[4] = tested on: NOL7 peptide 1-90 (human library)
[5] = tested on: NUP35 peptide 46-135 (human library)
[6] = tested on: TNNT2 peptide 1-90 (human library, SEQ ID NO: 34)
[7] = tested on: MTIF2 peptide 91-180 (human library)
[8] = tested on: PDLIM2 peptide 181-270 (human library)
[9] = tested on: CCDC86 peptide 136-225 (human library)
[10] = tested on: SLAIN2 peptide 46-135 (human library)
[11] = tested on: GPALPP1 peptide 181-270 (human library)
[12] = tested on: SIPA1L2 peptide 1531-1620 (human library)
[13] = tested on: MED13L peptide 991-1080 (human library)
[14] = tested on: LOC100290422 peptide 181-270 (human library)
[15] = tested on: ABL2 peptide 1-90 (human library)
[16] = tested on: PCDH20 peptide 91-180 (human library)
[17] = tested on: TNNT2 peptide 1-90 (human library, SEQ ID NO: 27)
[18] = tested on: ZSCAN10 peptide 46-135 (human library)
[19] = tested on: TNNT2 peptide 1-90 (human library, SEQ ID NO: 45)
[20] = tested on: LOC100287196 peptide 181-270 (human library)

Thrombin
Thrombi Fold Change [1]: 11 fold
Thrombi Fold Change [2]: 19.1 fold
Thrombi Fold Change [3]: 12.5 fold
Thrombi Fold Change [4]: 15.1 fold
Thrombi Fold Change [5]: 12.1 fold
Thrombi Fold Change [6]: 11.6 fold
Thrombi Fold Change [7]: 12.3 fold
Thrombi Fold Change [8]: 10.8 fold
Thrombi Fold Change [9]: 10.9 fold
Thrombi Fold Change [10]: 11.1 fold
Thrombi Fold Change [11]: 11.2 fold
Thrombi Fold Change [12]: 14.3 fold
Thrombi Fold Change [13]: 10.8 fold
Thrombi Fold Change [14]: 15.4 fold
Thrombi Fold Change [15]: 11.2 fold
Thrombi Fold Change [16]: 11.5 fold
Thrombi Fold Change [17]: 17.7 fold
Thrombi Fold Change [18]: 10.9 fold
Thrombi Fold Change [19]: 10.4 fold
Thrombi Fold Change [20]: 10.7 fold
